## Antibody variant affinities, Ab-14 light chain, assay B

The target is the same throughout: PDVDLGDISGINAS, from the HR2 region of SARS-CoV-2 spike.

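Phage display of a naive human antibody library on the peptide gave the parent. These sequences belong to a second round, designed from the earlier measurements on random variants of the parent. Group labels follow the data file (Ctrl: baseline library sampled from a position-specific scoring matrix, with some repeated check sequences; En: ensemble of fine-tuned language models; GP: Gaussian process model; HC: hill climbing; Gen: genetic algorithm; Gibbs: Gibbs sampling; a sequence that several methods proposed may carry one label only). The scFvs were displayed on barcoded MATa yeast, the peptide on MATalpha yeast. After mating in shaken culture at 30 °C for 16 h, diploids were selected and their barcode pairs sequenced. The ratio of observed to expected reads was calibrated, replicate by replicate, on BCL2-family standards whose Kd was known from biolayer interferometry. There are six technical replicates.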

The variants keep the heavy chain, the linker and the frameworks of Ab-14 (scFv order VH, a 15-residue (Gly4Ser)3 linker, VL).
VH: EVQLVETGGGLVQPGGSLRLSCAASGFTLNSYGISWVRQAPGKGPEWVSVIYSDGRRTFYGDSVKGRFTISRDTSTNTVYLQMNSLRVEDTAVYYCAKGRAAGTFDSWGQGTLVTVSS
VL: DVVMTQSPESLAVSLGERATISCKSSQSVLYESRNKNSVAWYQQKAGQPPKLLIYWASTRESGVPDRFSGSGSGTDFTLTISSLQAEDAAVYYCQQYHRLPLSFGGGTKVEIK

Each variant is given by its three light chain CDRs, as the data file delimits them; those of the parent are KSSQSVLYESRNKNSVA, WASTRES, QQYHRLPLS. Variants here have more than six changes. Values are apparent Kd, the geometric mean of the replicates that gave a signal; lower means stronger binding. "no signal" marks a missing value. The strain was present, yet no cells mated with the target were sequenced in any replicate, which points to weak or no binding. Three control strains display no target. For all light chain designs, 4% of the pairings with them gave a signal, with a median of 430 nM and one signal in twenty below 38 nM, so weak values seen in few replicates may be background. For each scFv, signals with the empty controls are counted beside the result. A sequence measured in both rounds can read differently, since the two assays cover different ranges. The authors averaged sequences with at least three values out of six and counted those with two or fewer as poor binders. The parent sequence was in this pool as ten entries: three were never detected, three once, and four in most replicates, with averages from 2.2 nM to 240 nM.

| CDR-L1 | CDR-L2 | CDR-L3 | group | Kd (apparent) | detected | empty controls |
|---|---|---|---|---|---|---|
| KIRVHHLMFSQNESNIA | GMSVRSR | QQYYHLPLT | En_Gibbs | 400 nM | 2/6 | 1/18 |
| KLSQVTEYESRNKNNVA | DLSTRGS | QDYHRLPLS | En_HC | 450 pM | 6/6 | 1/18 |
| TISSMWFIESKNRNNVA | EMTTREN | QDYDRLPLS | En_HC | 90 nM | 5/6 | 0/18 |
| MVTQMAMTGMKNKRSVA | NASTREN | QQYHRLPLI | En_Gen | 470 pM | 6/6 | 1/18 |
| KVSEFMRGLMNRSDSIA | DNVTRNK | QQYDRLPLS | En_Gen | 1.2 µM | 3/6 | 2/18 |
| HFSQVTMYGYWNKNSVA | QTSTREE | QQYDHLPLS | En_HC | no signal | 0/6 | 0/18 |
| QLMFKEATGMNNAYNIA | EAEYSGT | QQYSQLPLG | En_Gibbs | 100 nM | 1/6 | 0/18 |
| KISQAVNYLTRVMNSVA | DNSTRES | QQYFRLPLS | En_HC | 2.3 nM | 6/6 | 0/18 |
| MISQLMNMGQFAINSVA | QAETRNE | QQYDRLPLE | En_Gen | 310 nM | 2/6 | 0/18 |
| KLSQSWLYQSRNSNAVA | EASQREQ | QDYHRLPLS | GP_Gibbs | 1.1 nM | 6/6 | 1/18 |
| IVSQLMLWGMHARNSIA | EAETRLN | QQYERLPLF | En_Gen | no signal | 0/6 | 0/18 |
| KMAQGWEYESRWKNSVA | NASVRES | QQYHRLPLS | GP_Gibbs | 1.8 nM | 6/6 | 1/18 |
| MISGSVMSENRLKNSVA | QTTTRES | QQYDRLPLS | En_HC | 6.4 nM | 6/6 | 1/18 |
| HITYGMYVSGRYKSNIA | QAETRES | QQYDRLPLI | En_Gen | 8.5 nM | 6/6 | 1/18 |
| MVTQMAMSGMKNKRSVA | NAETREY | QQYHRLPLI | En_Gen | 3.6 nM | 6/6 | 1/18 |
| NLSMELLDATVKDMSIA | DAELSTM | QQYMRLPLS | En_Gibbs | 12 nM | 6/6 | 1/18 |
| MLLQATMYGEKQRNSVA | HAQTRED | QQYHRLPLI | En_HC | 35 nM | 2/6 | 2/18 |
| MISQLWNMGTFAINSVA | QASIRNA | QQYDRLPLI | En_Gen | 3.6 nM | 6/6 | 2/18 |
| KLSQVTHSESRNKNSIA | EMVTREK | QQYDRLPLS | En_HC | 21 nM | 6/6 | 3/18 |
| MMGKGLMGESRAKNSIA | QASLRED | QQYHRLPLI | En_HC | 2.0 nM | 6/6 | 0/18 |
| NLPMKELGMSWNVNNVA | DSENRMK | QQYSRLPLM | En_Gibbs | 4.9 nM | 6/6 | 0/18 |
| MIEIIQDGYDEMRSAIA | DTSLVRM | QQYYRLPLM | En_Gibbs | no signal | 0/6 | 0/18 |
| HLAQSVDLESVHKNSIA | DLMTREH | QQYHRLPLS | En_HC | 2.3 nM | 6/6 | 1/18 |
| HMSALTMMGMRQRNSVA | QMTTREN | QQYDRLPLA | En_Gen | 22 nM | 6/6 | 1/18 |
| KLSFSNGYEDRNKNSVA | QASQRLM | QQYHRLPLS | GP_Gibbs | 2.0 nM | 6/6 | 0/18 |
| NLSDGEMYENATRSNIA | DTSMRDF | QQYNRLPLD | En_Gibbs | 27 nM | 6/6 | 0/18 |
| KLSWSVEYEDRLSNSVA | DASQREW | QQYHRLPLS | GP_Gibbs | 2.6 nM | 6/6 | 1/18 |
| TVTQVTMVESYNKNSVA | QASTRLE | QDYHRLPLS | En_HC | 99 nM | 1/6 | 0/18 |
| KVSEFMRGLTQRKDSIA | DNTTRNN | QQYDRLPLS | En_Gen | no signal | 0/6 | 0/18 |
| TISQVMNTLTRHGNNVA | DLTEREV | QQYFRLPLE | En_Gen | 2.2 nM | 6/6 | 2/18 |
| TLTQVQGMESHNMDNVA | DLSTRGS | QQYHRLPLS | En_HC | 1.3 nM | 6/6 | 2/18 |
| MLSQMWGIGMKAKNSVA | QVSTRME | QQYDRLPLI | En_Gen | 8.0 nM | 6/6 | 2/18 |
| TISQMTSLFSQKINNVA | EVSMREE | QQYDRLPLI | En_Gen | 4.9 nM | 6/6 | 2/18 |
| KSSQSVLYISLNSNSVA | WASVRES | DQWHSLPLS | Ctrl | no signal | 0/6 | 0/18 |
| NLMSHQSEIDVWKYSIA | EASIRLS | QQYFRLPLA | En_Gibbs | 9.3 nM | 1/6 | 0/18 |
| IISQSVLGGYHNKNSVA | QTSERGQ | QMYDRLPLS | En_HC | 390 nM | 4/6 | 0/18 |
| KISQMYRYENQNHSSIA | EMNTREQ | QSYHRLPLS | En_HC | 670 nM | 1/6 | 2/18 |
| MISNVMNTLTREGNNVA | DLAERER | QQYFRLPLS | En_Gen | 25 nM | 6/6 | 1/18 |
| MFSQLVYTGSRTKNAVA | QASTREN | QQYHRLPLV | En_HC | 16 nM | 6/6 | 0/18 |
| HTQHLGFGDPKHWNSIA | EVSQVCS | QQYMRLPLT | En_Gibbs | 7.3 nM | 6/6 | 0/18 |
| IISGSMHMESRNKNSVA | NAETREY | QHYDRLPLS | En_HC | 49 nM | 6/6 | 0/18 |
| MMSQVQGLGQRHRNNVA | QTSTRED | QQYDRLPLI | En_Gen | 10 nM | 6/6 | 0/18 |
| SLGLVTMLEYANRNNVA | NNSTREA | QQYDRLPLS | En_Gen | 8.6 nM | 5/6 | 0/18 |
| KLGATMNTESTKRNNVA | DLVEREN | QQYFRLPLS | En_Gen | 2.6 nM | 6/6 | 0/18 |
| QLGAVLDMTSKNKNSVA | EQSTREN | QQYHRLPLS | En_HC | 2.2 nM | 6/6 | 0/18 |
| TITGVMQQMSHSKNNVA | EVSERLD | QQYFRLPLE | En_Gen | 1.2 nM | 6/6 | 1/18 |
| TLSQMSGVEAVKHNNVA | ENSTREK | QQYDRLPLT | En_Gen | 69 nM | 6/6 | 1/18 |
| KLQNFSQEYNKMWNNIA | DMTMKHT | QQYNRLPLV | En_Gibbs | 1.6 nM | 6/6 | 2/18 |
| KLSILHQVESINKSNVA | EMVTRES | QQYHRLPLS | En_HC | 4.5 nM | 6/6 | 3/18 |
| KLSISVEYQDRLSNSVA | DASQREW | QQYHRLPLS | GP_Gibbs | 1.3 nM | 6/6 | 2/18 |
| TIGQSTLMESMNRNNVA | QMSTREK | QQYDRLPLS | En_HC | 23 nM | 6/6 | 0/18 |
| KFSQMANSMSVSHSAVA | EMSTRED | QQYNRLPLA | En_Gen | 180 pM | 1/6 | 0/18 |
| MIEEGNAGEQKNSSNIA | SQDQKED | QQYQRLPLI | En_Gibbs | 59 nM | 6/6 | 0/18 |
| KMTLPTGMWLNKANSIA | DASSVME | QQYYWLPLT | En_Gibbs | 240 nM | 4/6 | 0/18 |

Again, the first 5 entries without any signal:

CDR-L1	CDR-L2	CDR-L3	group	Kd (apparent)	detected	empty controls
HFSQVTMYGYWNKNSVA	QTSTREE	QQYDHLPLS	En_HC	no signal	0/6	0/18
IVSQLMLWGMHARNSIA	EAETRLN	QQYERLPLF	En_Gen	no signal	0/6	0/18
MIEIIQDGYDEMRSAIA	DTSLVRM	QQYYRLPLM	En_Gibbs	no signal	0/6	0/18
KVSEFMRGLTQRKDSIA	DNTTRNN	QQYDRLPLS	En_Gen	no signal	0/6	0/18
KSSQSVLYISLNSNSVA	WASVRES	DQWHSLPLS	Ctrl	no signal	0/6	0/18

Reference: Li et al. 2023, doi:10.1038/s41467-023-39022-2. File: FLAb, binding data.